In patent US12139488B2, “Pyrido[3,2-d]pyrimidine compounds uses thereof for treating a proliferative disease” (Universite de Montreal, priority 2021, dated 2024):

system: pERK in HCT-116 cells (KRAS G13D); test: Phospho-ERK inhibition (AlphaLISA SureFire Ultra p-ERK 1/2), HCT116; conditions: RAS-mutant HCT116 cells, FIG. 1
Experimental: All cancer cell lines (A375, A101D, A2058, RKO, HT29 SK-MEL 30, IPC298, HepG2, HCT-116, Lovo, SWV620, SW480, NCI-H358, NCI-H2122, Calu-6, NCIH2087, NCIH1755, NCIH1666 and Mewo) were obtained from ATCC and cultured in RPMI-1640 medium (Gibco) supplemented with 5% heat inactivated fetal bovine serum (FBS, Wisent) at 37° C. under 5% CO2. Cells were maintained in T175 flasks (Greiner). They were passaged by removing the culture medium, washing once in 10 mL of room temperature Phosphate Buffered Saline (PBS; Wisent) and incubating at 37° C. with 2 mL of 0.05% Trypsin (Thermo-Fisher). Trypsin was then inactivated by adding complete growth medium and the cells were then replated in a T175 culture dish at the appropriate dilution. All cell lines were routinely tested for mycoplasma contamination. Tissue type and mutational status of each cell line can be found in Table B.
AlphaLISA® SureFire® Ultra™ p-ERK 1/2 (Thr202/Tyr204) analysis was conducted on cells plated in 100 μL of complete RPMI-1640 growth medium in 96-well flat-bottomed transparent dishes (Costar) at a density indicated in Table C. Cells were maintained overnight at 37° C. under 5% CO2 before treatment with compounds' dilution series for one hour. The cell density in cells/cm^2 corresponds to cell number divided by the area of one well of a 96-well plate ([…]). […]
After treatment, media was removed and cells were lysed in 50 μL of 1× AlphaScreen Ultra Lysis Buffer (Perkin Elmer). […] After completion of the reactions, the signals were recorded on an EnVision plate reader (Perkin Elmer) using built in AlphaLISA® settings.
The effect of each compound dilution on the pERK signal was expressed in % inhibition and calculated as follows. […]
The ability of each compound to inhibit pERK signal was expressed as an IC50 value obtained by plotting the inhibition values for each data point of a dilution series and fitting the obtained curves using a log(agonist) versus response-variable slope (four parameters) function using GraphPadPrism (V7.0) or Dotmatics Screening Ultra platform. […]

YMIN of pERK IC50 dose response curve (paradoxical induction of pERK signaling), > −20%:
Cc1c(Cl)cccc1S(=O)(=O)Nc1ccc(F)c(Nc2ncnc3ccc(-n4nc(C(=O)N5CCN(CCO)CC5)c5ccccc54)nc23)c1F
CN1CCN(C(=O)c2cn(-c3ccc4ncnc(Nc5c(F)ccc(NS(=O)(=O)c6ccccc6Cl)c5F)c4n3)c3ccccc23)CC1
O=C(c1nn(-c2ccc3ncnc(Nc4c(F)ccc(NS(=O)(=O)c5cccc(Cl)c5Cl)c4F)c3n2)c2ccccc12)N1CCOCC1
